Laboratory results reported in EP3277282B1, “DASATINIB FOR USE IN THE TREATMENT, REGRESSION OR DECELERATING THE PROGRESS OF FIBROTIC LUNG DISEASES” (Istanbul Universitesi Rektorlugu, priority 2015, dated 2016).

Tested on: lungs of BLM treated mice
Conditions: on average, from 5 (BLM only) to 3; BLM 0.08 mg/kg single intra-tracheal dose; dasatinib 8 mg/kg by gavage; day 21; scale 0 to 8

Cc1nc(Nc2ncc(C(=O)Nc3c(C)cccc3Cl)s2)cc(N2CCN(CCO)CC2)n1 [Dasatinib, N-(2-chloro-6-methylphenyl)-2-[[6-[4-(2-hydroxyethyl)-1-piperazinyl]-2-methyl]-4-pyrimidinyl]amino]-5-thiazolecarboxamide mono-hydrate]
degree of fibrosis (Ashcroft score): 3
